Consider one compound from patent US7271174B2, “Metabolites of tricyclic amides useful for inhibition of G-protein function and methods of treatment of proliferative diseases” (Schering Corporation, priority 2003, dated 2007).

This assay addresses purified human farnesyl protein transferase (Homo sapiens, UniProt P49354+P49356). Nature of the assay: (H-Ras) Farnesyl Transferase Inhibition assay. In kind it is biochemical. The note with it: transfer of [3H] farnesyl from [3H] farnesyl pyrophosphate to biotin-CVLS peptide; 37° C., 60 minutes; SPA beads. The protocol: Assay Conditions for (H-Ras) FPT
FPT activity was determined by measuring the transfer of [^3H] farnesyl from [^3H] farnesyl pyrophosphate to a biotinylated peptide derived from the C-terminus of H-Ras (biotin-CVLS). […] The reaction mixture was incubated in a Vortemp shaking incubator at 37° C., 45 RPM for 60 minutes and stopped with 150 μL of 0.25 M EDTA containing 0.5% BSA and 1.3 mg/ml Streptavidin SPA beads. […] Percent inhibition was calculated relative to the vehicle control.

Consider `NC(=O)N1CCC(CC(=O)N2CCC([C@H]3c4ncc(Br)cc4CCc4cc(Cl)cc(Br)c43)CC2)CC1` [Compound A (Control), reference compound], for which the half-maximal inhibitory concentration (IC50) is 2.4 nM. This counts as single-digit nanomolar.
